The record followed here is BindingDB's records for doi:10.1016/j.ejmech.2015.02.004 (Stanford University School of Medicine, 2015).

The chains behind the UniProt entries cited, without tags or fusion partners.
UniProt P30536, whole entry: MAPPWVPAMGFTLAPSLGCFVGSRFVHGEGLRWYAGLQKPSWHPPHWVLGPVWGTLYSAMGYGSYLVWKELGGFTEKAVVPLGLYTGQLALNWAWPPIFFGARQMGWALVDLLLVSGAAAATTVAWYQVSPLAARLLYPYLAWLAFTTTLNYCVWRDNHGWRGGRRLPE

Structures are written as SMILES.

In the assay the target is Translocator protein (Homo sapiens, UniProt P30536). Kind of assay: Inhibition of human TSPO.

`CC[C@@H](C)N(C)C(=O)c1cc2ccccc2c(-c2ccccc2Cl)n1` [PK 11195] returned a Ki of 4.5 nM.
